Measurements from patent US20200299317A1, “Manufacturing Method of Ferric Citrate” (Tokuyama Corporation, priority 2018, published 2020).

Experiment: Specific surface area of ferric citrate, constant-volume nitrogen adsorption method, BET
Type: physicochemical
Settings: after reduced-pressure drying only (30° C., then 70° C. for 20 hours), no humidity control drying
Description: The water-soluble organic solvent content in ferric citrate of Examples and Comparative examples were measured by gas chromatography (GC). A sample was introduced into GC by using a headspace (HS). The purity of ferric citrate (hereinafter, may be simply referred to as the “purity”) was measured by high performance chromatography (HPLC), and the specific surface area was measured by a nitrogen absorption method. The apparatus used in each measurement and measurement conditions are as follows.
The specific surface area of ferric citrate was measured under the following conditions.
Apparatus: specific surface area measuring apparatus (made by MicrotracBEL Corp.)
Measuring method: constant-volume nitrogen adsorption method
Sample volume: approximately 100 mg
Pretreatment temperature: 40° C.
Pretreatment time: 1 hour
In the following examples and comparative examples, when the partial pressure of nitrogen was within the range of 0.1 to 0.3, a nitrogen absorption volume at each partial pressure was measured under the above conditions, and the specific surface area of ferric citrate was analyzed and calculated from the partial pressure and the nitrogen adsorption volume by a BET method.
Substance “ferric citrate [Comparative Example 1, reference compound]” has a Specific surface area of 40.8 m^2/g. “ferric citrate [Comparative example 2, reference compound]” gave a Specific surface area of 88.9 m^2/g. “ferric citrate [Comparative example 3, reference compound]” showed a Specific surface area of 24.9 m^2/g.

Same assay, conditions: ferric citrate after reduced-pressure drying followed by humidity control drying
Substance ferric citrate [Example 1] has a Specific surface area of 38.3 m^2/g. Work on ferric citrate [Example 2] yielded a Specific surface area of 39.9 m^2/g. In the case of ferric citrate [Example 3], the Specific surface area is reported as 40.1 m^2/g. ferric citrate [Example 4] showed a Specific surface area of 31.1 m^2/g. In the case of ferric citrate [Example 5], the Specific surface area is reported as 35.6 m^2/g. With ferric citrate [Example 6] the Specific surface area was 37.9 m^2/g. Work on ferric citrate [Example 7] yielded a Specific surface area of 36.8 m^2/g. Work on ferric citrate [Example 8] yielded a Specific surface area of 36.8 m^2/g. Work on ferric citrate [Example 9] yielded a Specific surface area of 38.4 m^2/g. Work on ferric citrate [Example 10] yielded a Specific surface area of 32.3 m^2/g. For ferric citrate [Example 11], the Specific surface area was 31.4 m^2/g. ferric citrate [Example 12] gave a Specific surface area of 30.2 m^2/g. ferric citrate [Example 13] showed a Specific surface area of 38.7 m^2/g. With ferric citrate [Example 14] the Specific surface area was 38.5 m^2/g. In the case of ferric citrate [Example 15], the Specific surface area is reported as 39.0 m^2/g. In the case of ferric citrate [Example 16], the Specific surface area is reported as 88.7 m^2/g. Work on ferric citrate [Example 17] yielded a Specific surface area of 24.5 m^2/g. For ferric citrate [Example 18], the Specific surface area was 66.4 m^2/g. Substance ferric citrate [Example 19] has a Specific surface area of 47.8 m^2/g.

Same assay, conditions: humidity control drying (30° C., 60 RH %) of wet material containing 60.2% by mass of acetone, no reduced-pressure drying
In the case of “ferric citrate [Comparative example 4, reference compound]”, the Specific surface area is reported as 11.0 m^2/g.
